From ChEMBL document CHEMBL1795334, “Towards predictive inhibitor design for the EGFR autophosphorylation activity” (Eur J Med Chem, 2008) come the findings set out here.

By UniProt entry, the sequences of proteins in these tests, tags left out.
UniProt P00533, whole entry: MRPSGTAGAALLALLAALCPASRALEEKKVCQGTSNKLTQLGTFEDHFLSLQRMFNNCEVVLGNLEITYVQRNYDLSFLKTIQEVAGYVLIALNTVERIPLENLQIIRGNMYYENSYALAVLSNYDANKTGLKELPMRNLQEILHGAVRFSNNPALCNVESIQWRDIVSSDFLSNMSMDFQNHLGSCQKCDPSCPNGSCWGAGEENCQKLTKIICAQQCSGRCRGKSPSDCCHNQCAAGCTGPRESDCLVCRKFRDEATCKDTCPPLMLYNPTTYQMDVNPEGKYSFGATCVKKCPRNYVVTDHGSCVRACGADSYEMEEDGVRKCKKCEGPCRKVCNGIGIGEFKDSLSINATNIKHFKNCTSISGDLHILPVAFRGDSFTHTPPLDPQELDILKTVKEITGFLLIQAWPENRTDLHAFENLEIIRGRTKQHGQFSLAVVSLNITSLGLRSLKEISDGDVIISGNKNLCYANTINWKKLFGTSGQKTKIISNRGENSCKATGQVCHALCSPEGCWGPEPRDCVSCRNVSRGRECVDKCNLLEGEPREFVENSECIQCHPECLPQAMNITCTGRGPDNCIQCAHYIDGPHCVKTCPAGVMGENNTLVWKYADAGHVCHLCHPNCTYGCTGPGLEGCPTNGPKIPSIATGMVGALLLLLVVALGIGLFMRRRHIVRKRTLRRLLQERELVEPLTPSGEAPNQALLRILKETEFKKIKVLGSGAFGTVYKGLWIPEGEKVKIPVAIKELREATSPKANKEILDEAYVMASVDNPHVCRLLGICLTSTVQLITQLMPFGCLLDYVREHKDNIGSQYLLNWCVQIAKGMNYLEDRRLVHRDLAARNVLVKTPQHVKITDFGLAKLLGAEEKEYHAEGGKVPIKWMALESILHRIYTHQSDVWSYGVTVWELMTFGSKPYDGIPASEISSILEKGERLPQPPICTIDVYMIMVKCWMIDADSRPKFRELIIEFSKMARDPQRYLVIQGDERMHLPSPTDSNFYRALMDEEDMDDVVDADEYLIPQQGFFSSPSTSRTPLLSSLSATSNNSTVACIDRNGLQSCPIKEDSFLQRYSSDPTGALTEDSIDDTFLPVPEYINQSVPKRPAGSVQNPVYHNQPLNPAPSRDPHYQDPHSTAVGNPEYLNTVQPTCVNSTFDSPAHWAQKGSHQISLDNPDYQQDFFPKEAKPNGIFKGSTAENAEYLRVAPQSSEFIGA

For this assay, the target named is Epidermal growth factor receptor (Homo sapiens, UniProt P00533). The assay can be described thus: Inhibition autophosphorylation of EGFR in human DiFi cells after 2 hrs by ELISA. It counts as cell-based.
Regarding `COc1cc2ncc(C#N)c(Nc3ccc(F)c(Cl)c3)c2cc1OC`, the half-maximal inhibitory concentration (IC50) was 537 nM.
Take `COc1cc2ncc(C#N)c(Nc3cccc(C(F)(F)F)c3)c2cc1OC`: the 50% inhibitory concentration (IC50) was 1450 nM.
As for `COc1cc2ncc(C#N)c(Nc3cccc(N(C)C)c3)c2cc1OC`, the figure is 851 nM; as for `COc1cc2ncc(C#N)c(Nc3cccc([N+](=O)[O-])c3)c2cc1OC`, 871 nM; as for `COc1cc2ncc(C#N)c(Nc3ccc(F)c(C(F)(F)F)c3)c2cc1OC`, 158 nM.
The compound `COc1cc2ncc(C#N)c(Nc3ccccc3C(C)C)c2cc1OC` had a half-maximal inhibitory concentration (IC50) of 363 nM.
As for `COc1cc2ncc(C(N)=O)c(Nc3cccc(Br)c3)c2cc1OC`, the figure is 15100 nM.
As for `COc1cc2ncc(C#N)c(Nc3ccc(Br)cc3)c2cc1OC`, the figure is 6610 nM; as for `COc1cc2ncc(C#N)c(Nc3cc(Cl)ccc3O)c2cc1OC`, 17000 nM.
As for `COc1ccc(Nc2c(C#N)cnc3cc(OC)c(OC)cc23)cc1OC`, the figure is 50100 nM.
